Test system: human MOR-1 variants
Conditions: all human variants

For CN(C(=O)Cc1ccc(Cl)c(Cl)c1)[C@@H]1CCCC[C@H]1N1CCCC1, the “competition of [3H]DAMGO binding (in words)” value was “inactive”.
